Measurements reported in paper PMC10287724, “Structural basis of the interaction between BCL9-Pygo and LDB-SSBP complexes in assembling the Wnt enhanceosome” (Nature Communications, 2023).
Numbering of substitutions follows the chain as printed. Names may count otherwise.

Experiments:
[1] = target: GST-hPygo2(58-84) (human) (UniProt Q9BRQ0); experiment: BLI; GST-Pygo2(58-84) wt or mutant loaded on GST biosensors, quenched with free GST; wt or mutant MBP-LDB1-SSBP2 in solution (0.03-30 uM); Octet RED96, 30 °C; KD from steady-state analysis
[2] = target: GST-hPygo2(58-84) D80A (human) (UniProt Q9BRQ0); experiment: as above
[3] = target: GST-hPygo2(58-84) E79A (human) (UniProt Q9BRQ0); experiment: as above
[4] = target: GST-hPygo2(58-84) N76A (human) (UniProt Q9BRQ0); experiment: as above
[5] = target: GST-hPygo2(58-84) PPP63AAA (human) (UniProt Q9BRQ0); experiment: as above
[6] = target: T1, wt MBP-LDB1(56–285)-SSBP2(1–94) complex (human), Q86U70; experiment: BLI; details: modification not given
T1 chain 1: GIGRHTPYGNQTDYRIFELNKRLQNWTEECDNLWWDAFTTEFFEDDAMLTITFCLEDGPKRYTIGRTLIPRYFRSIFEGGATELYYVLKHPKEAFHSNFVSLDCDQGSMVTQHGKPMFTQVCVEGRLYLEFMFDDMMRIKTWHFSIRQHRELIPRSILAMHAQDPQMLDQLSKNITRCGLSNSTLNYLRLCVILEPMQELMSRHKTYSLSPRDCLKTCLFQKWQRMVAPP
T1 chain 2: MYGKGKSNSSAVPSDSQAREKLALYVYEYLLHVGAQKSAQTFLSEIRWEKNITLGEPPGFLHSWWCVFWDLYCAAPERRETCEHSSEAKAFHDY

[7] = target: T2, wt MBP-LDB1(56–285)-SSBP2(1–94) complex (human, UniProt Q86U70 56-285; P81877 1-94); experiment: BLI
T2 chain 1: T1 chain 1
T2 chain 2: T1 chain 2

[8] = target: T3, MBP-LDB1(56–285)-SSBP2(1–94) complex, LDB1 L245A (human, UniProt Q86U70 56-285; P81877 1-94, L245A); experiment: BLI
T3 sequence 1: T1 chain 1 with L190A
T3 sequence 2: T1 chain 2

[9] = target: T4, MBP-LDB1(56–285)-SSBP2(1–94) complex, LDB1 I248A (human, UniProt Q86U70 56-285; P81877 1-94, I248A); experiment: BLI
T4 sequence 1: T1 chain 1 with I193A
T4 sequence 2: T1 chain 2

[10] = target: T5, MBP-LDB1(56–285)-SSBP2(1–94) complex, LDB1 R244A (human, UniProt Q86U70 56-285; P81877 1-94, R244A); experiment: BLI
T5 sequence 1: T1 chain 1 with R189A
T5 sequence 2: T1 chain 2

[11] = target: MBP-LDB1(56–285)-SSBP2(1–94) complex, LDB1 N237A (human, UniProt Q86U70 56-285; P81877 1-94, N237A); experiment: pull-down; MBP pull-down: 5 μM wt or mutant MBP-LDB1-SSBP2 on dextrin sepharose, 20 μM GST-Pygo; 50 mM Tris-HCl pH 8.0, 100 mM NaCl, 10 mM DTT; room temperature 2 h; Coomassie; details: both partners purified
[12] = target: MBP-LDB1(56–285)-SSBP2(1–94) complex, LDB1 N241A (human, UniProt Q86U70 56-285; P81877 1-94, N241A); experiment: as above; details: both partners purified
[13] = target: MBP-LDB1(56–285)-SSBP2(1–94) complex, LDB1 L245A (human, UniProt Q86U70 56-285; P81877 1-94, L245A); experiment: as above; details: both partners purified
[14] = target: MBP-LDB1(56–285)-SSBP2(1–94) complex, LDB1 I248A (human, UniProt Q86U70 56-285; P81877 1-94, I248A); experiment: as above; details: both partners purified
[15] = target: wt MBP-LDB1(56–285)-SSBP2(1–94) complex (human, UniProt Q86U70 56-285; P81877 1-94); experiment: BLI; Octet RED96; GST-Pygo2 (wt or mutant) on GST biosensors quenched with free GST, wt or mutant MBP-LDB1-SSBP2 in solution at 0.03-30 μM; free GST sensors as control; steady-state analysis; details: both partners purified
[16] = target: T2, wt MBP-LDB1(56–285)-SSBP2(1–94) complex; experiment: BLI

Molecule: MBP-LDB1(56-285) R244A-SSBP2(1-94) complex (from UniProt Q86U70 56-285; P81877 1-94)
- Kd [1]: 8.2 µM

Molecule: MBP-LDB1(56-285) L245A-SSBP2(1-94) complex (from UniProt Q86U70 56-285; P81877 1-94)
- Kd [1]: 3.2 µM

Molecule: MBP-LDB1(56-285) I248A-SSBP2(1-94) complex (from UniProt Q86U70 56-285; P81877 1-94)
- Kd [1]: 3.2 µM

Molecule: MBP-LDB1(56-285)-SSBP2(1-94) complex (from UniProt Q86U70 56-285; P81877 1-94)
- Kd [2]: 2.1 µM
- Kd [3]: 0.57 µM
- Kd [4]: 10 µM
- Kd [5]: 25 µM

Molecule: GLQMKSPEKKRRKSNTQGPAYSHLTEFAPPPTPMVDHLVASNPFEDDFGA [Pygo2(35-84)]
- Kd [6]: 0.45 µM

B1: GST-Pygo2(58–84) (domain or fragment, human, UniProt Q9BRQ0 58-84, looked up)
chain: LTEFAPPPTPMVDHLVASNPFEDDFGA
notes: Pygopus 2 (Pygo2), human, residues 58-84 (PPP cluster 63-65 and NPF motif 76-78); also called GST-tagged wt Pygo2; wt GST-Pygo fragment; source: E. coli BL21 (DE3), purified (glutathione sepharose, Superdex 200 SEC); not shown: GST, N-terminal, kept
- Kd [7]: 0.69 µM
- Kd [8]: 3.2 µM
- Kd [9]: 3.2 µM
- Kd [10]: 8.2 µM
- binding result [11]: binds
- binding result [12]: binds
- binding result [13]: binds
- binding result [14]: binds
- Kd [15]: ~0.45 µM

Molecule: LTEFAPPPTPMVDHLVASNPFEADFGA (domain or fragment) [GST-Pygo2 D80A]
- Kd [16]: 2.1 µM

Molecule: LTEFAAAATPMVDHLVASNPFEDDFGA (domain or fragment) [GST-Pygo2 PPP > AAA]
- Kd [16]: 25 µM

Molecule: LTEFAPPPTPMVDHLVASNPFADDFGA (domain or fragment) [GST-Pygo2 E79A]
- Kd [16]: 0.57 µM

Molecule: LTEFAPPPTPMVDHLVASAPFEDDFGA (domain or fragment) [GST-Pygo2 N76A]
- Kd [16]: 10 µM

B2: GST-Pygo2(66–81) (domain or fragment, human, UniProt Q9BRQ0 66-81, looked up)
chain: TPMVDHLVASNPFEDD
notes: Pygopus 2 (Pygo2), human, residues 66-81; also called shorter Pygo2 fragment lacking PPP; source: E. coli BL21 (DE3), purified (glutathione sepharose, Superdex 200 SEC); not shown: GST, N-terminal, kept
- Kd [15]: ~11 µM
